Measurements published in patent US20240050441A1, “COMBINATION THERAPIES FOR THE TREATMENT OF CANCER” (Erasca, Inc., priority 2020, published 2024).

Experiments:
Assay in all cases: Cellular proliferation assay (CellTiter-Glo, day 5)
Assay type in all cases: cell-based
SCC-9 cells = details: up to 2.5 μg/ml of cetuximab alone
Protocol: (§1) The cell lines used in the study were obtained from ATCC (CAL 27 #CRL-2095, SCC-15 #CRL-1623, SCC-25 #CRL-1628, SCC-4 #CRL-1624 and SCC-9 #CRL-1629). The cell line, CAL 27 was cultured in DMEM (Gib co #). SCC-4, SCC-15, SCC-25, SCC-9 cell lines was cultured in a 1:1 mixture of DMEM and Ham's F12 medium containing 1.2 g/L sodium bicarbonate, 2.5 mM L-glutamine, 15 mM HEPES and 0.5 mM sodium pyruvate supplemented with 400 ng/ml hydrocortisone, 90%; fetal bovine serum, 10% (Hyclone #SH-30071.03) and Penicillin/Streptomycin (Thermo Fisher #15070-063). The cells were maintained at 37° C./5% CO2. Cells were washed in ice cold PBS (Thermo Fisher Scientific #10010-023) and lysed in RIPA Lysis and Extraction Buffer (Thermo Fisher Scientific #89900) supplemented with Halt Phosphatase and Protease Inhibitor (Thermo Fisher Scientific #78445). The membrane was blocked for non-specific proteins by Bovine Serum Albumin BSA (Cell Signaling Tech #9998). Antibodies for immunoblotting were as follows: phospho-p44/42 ERK1/2 (Cell Signaling Tech #4370), ERK2 antibody (Santa Cruz #sc-1647), anti-mouse IgG HRP-linked antibody (Cell Signaling Tech #7076), and anti-rabbit IgG HRP-linked antibody (Cell Signaling Tech #7074).
(§2) […] HPV-negative head and neck squamous cancer cell lines, CAL 27, SCC-4, SCC-9, SCC-15 and SCC-25 were split onto 96 well plates.

SCC-15 cells = details: up to 5 μg/ml of cetuximab alone
Protocol: as §1, §2

SCC-25 cells = tested on: SCC-25 cells
Protocol: as §1
Three HPV-negative head and neck squamous cancer cell lines, CAL 27, SCC-4, SCC-9, SCC-15 and SCC-25 were split onto 96 well plates. […] (FIGS. 2-5).

cetuximab [reference compound]
decrease in cell viability (SCC-9 cells): no noticeable decrease in cell viability
decrease in cell viability (SCC-15 cells): no noticeable decrease in cell viability
decrease of cell viability (percent CTG activity) (SCC-25 cells; cetuximab treatment alone): did not decrease the cell viability
decrease in cell viability (SCC-25 cells; up to 5 μg/ml of cetuximab alone): no noticeable decrease in cell viability
